These are literature values, as cited in patent US8158153B2, “Nanoparticulate bisphosphonate compositions” (Alkermes Pharma Ireland Limited, priority 2005, dated 2012).

The conditions of the series: patients; clinical use.

On to `NCCCC(O)(P(=O)([O-])O)P(=O)(O)O.O.O.O.[Na+]` [Alendronate sodium, (4-amino-1-hydroxybutylidene) bisphosphonic acid monosodium salt trihydrate], for which the “side effects / adverse effects” value is “esophagitis and/or esophageal ulcers”.
